# Laboratory results reported in patent publication US10906910B2, “Substituted bicyclic pyrimidine compounds with tubulin and multiple receptor inhibition” (Duquesne University of the Holy Spirit, priority 2014, dated 2021).
# Tested on: tubulin (colchicine site)
# Assay: inhibition of [3H]colchicine binding to tubulin
# Parameters: species or system bovine
# Conditions: in % (unit assumed)
structure (smiles),measurement,value
"COc1ccc(/C=C\c2cc(OC)c(OC)c(OC)c2)cc1O [combretastatin A-4, reference compound]",inhibition of colchicine binding (5 μM inhibitor),98 ± 0.3
